Test results published in patent US10413564B2, “Compositions and methods for combating drug-resistant cancers” (NATIONAL YANG-MING UNIVERSITY, priority 2016, dated 2019).

Columns and labels:
OECM1 cells = test: Cell viability (MTT) assay, OECM1 parental cells; type: cell-based, human; details: cetuximab on OECM1 parental cells
Protocol: (§1) After 24 h treatment, the medium was removed.

OECM1-Ctx^R cells = test: Growth inhibition of the cetuximab-resistant subline OECM1-Ctx^R; type: cell-based, human; details: OECM1-Ctx^R subline in comparison with OECM1 parental cells, growth curve
Protocol: as §1

wild-type FaDu cells = test: Wild-type FaDu subcutaneous xenograft in nude mice (in vivo selection); design: species or system Balb/c nude mice; details: two mice treated with cetuximab once a week
Protocol: (§2) A cetuximab-resistant HNSCC subline (named FaDu-Ctx^R) was established by in vivo selection. 1×10^5 wild-type FaDu cells per mouse were inoculated into the subcutaneous area of Balb/c nude mice (n=4). Two mice were treated with PBS and two were treated with cetuxmab once a week. […] After 10 weeks, the xenograpfted tumor was harvested for primary culture. […] The resistance of FaDu-Cxt^R was confirmed in vivo and in vitro. Subsequently, these two sublines were inoculated into nude mice again and treated with cetuximab.

[1] = tested on: FaDu-Ctx^R and FaDu-control sublines; test: In vivo validation of cetuximab resistance, FaDu-Ctx^R and FaDu-control xenografts; details: sublines inoculated into nude mice again and treated with cetuximab
Text: FIGS. 2(A)-(B). (A) illustrates the generation of in vivo-selected FaDu-Ctx^R cells. […] The above sublines were inoculated into the subcutaneous area of nude mice and treated with cetuximab (ctx), and FaDu-ctrl treated with PBS was applied as a control. Left, the relative tumor volume of the mice. Right, a photo for showing the xenotransplanted tumors. Scale bar=1 cm.
as §2

Substance: cetuximab
- IC50 of OECM1 (OECM1 cells): 200 µg/mL
- inhibition rate by cetuximab (OECM1-Ctx^R cells): lower inhibition rate
- tumor response of wild-type FaDu xenografts (wild-type FaDu cells): total tumor shrinkage wad noted in one, and another mouse showed persistent tumor growth
- persistence of tumors under cetuximab [1]: persistence of tumors was only shown in FaDu-Ctx^R but not in FaDu-control
